Reference: patent US20250011790A1, “COMBINED TARGETING OF STAT3 AND ULKI TO TREAT GLIOBLASTOMA” (Vanderbilt University, priority 2021, published 2025)

Target: T1, ULK1 (Homo sapiens, UniProt O75385)
T1 sequence (O75385 1-1050): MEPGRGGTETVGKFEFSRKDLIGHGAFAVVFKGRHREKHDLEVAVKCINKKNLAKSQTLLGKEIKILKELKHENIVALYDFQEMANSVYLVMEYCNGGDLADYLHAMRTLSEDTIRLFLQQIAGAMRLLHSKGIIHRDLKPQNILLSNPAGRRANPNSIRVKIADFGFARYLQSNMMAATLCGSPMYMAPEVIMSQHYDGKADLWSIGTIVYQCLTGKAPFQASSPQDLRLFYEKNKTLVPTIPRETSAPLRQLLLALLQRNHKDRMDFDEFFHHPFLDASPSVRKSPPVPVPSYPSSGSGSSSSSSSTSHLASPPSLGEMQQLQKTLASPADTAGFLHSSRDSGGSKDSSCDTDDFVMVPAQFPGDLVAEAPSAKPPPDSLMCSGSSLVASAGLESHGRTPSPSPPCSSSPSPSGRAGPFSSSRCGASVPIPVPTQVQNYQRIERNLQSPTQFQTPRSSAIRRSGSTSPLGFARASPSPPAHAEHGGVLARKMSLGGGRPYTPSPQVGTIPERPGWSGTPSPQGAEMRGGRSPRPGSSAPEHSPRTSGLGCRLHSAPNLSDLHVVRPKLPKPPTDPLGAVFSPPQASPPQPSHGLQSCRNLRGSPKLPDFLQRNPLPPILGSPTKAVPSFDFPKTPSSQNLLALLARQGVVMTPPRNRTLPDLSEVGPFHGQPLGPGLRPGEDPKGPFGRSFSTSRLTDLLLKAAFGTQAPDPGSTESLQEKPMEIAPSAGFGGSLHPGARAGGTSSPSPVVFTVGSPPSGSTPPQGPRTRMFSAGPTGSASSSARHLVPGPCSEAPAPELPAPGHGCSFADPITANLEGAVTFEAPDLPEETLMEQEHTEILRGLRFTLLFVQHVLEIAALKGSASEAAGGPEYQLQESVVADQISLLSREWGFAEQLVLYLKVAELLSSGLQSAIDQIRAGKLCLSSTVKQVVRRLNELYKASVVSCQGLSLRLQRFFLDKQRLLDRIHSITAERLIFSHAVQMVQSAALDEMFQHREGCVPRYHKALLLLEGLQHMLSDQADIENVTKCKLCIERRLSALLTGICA
Assay: Western blot of ULK1 signaling (p-ATG14, p-Beclin1, p-ULK1) in MT330 cells
Assay type: cell-based
Conditions: MRT68921 20 μM, 5 h

[1] = STAT3-KO and STAT3-mutant MT330 lines

For `CN1CCc2cc(Nc3ncc(C4CC4)c(NCCCNC(=O)C4CCC4)n3)ccc2C1` [MRT68921], the “ATG14 S29 phosphorylation” value [1] was “completely blocked”, the Beclin1 phosphorylation [1] was “reduced” and the ULK1 phosphorylation (STAT3-KO cells and cells expressing STAT3 mutants) was “significantly inhibited”.
